Molecular target: T1, human p38 kinase alpha (Homo sapiens, UniProt Q16539)
T1 construct: The coding region of the human p38 cDNA was obtained by PCR-amplification from RNA isolated from the human monocyte cell line THP.1; GST (N); made in house; host or cells: E. coli DH10B
Assay: p38 kinase in vitro assay
Assay type: biochemical
Details: n=1 if not reported

Protein sequences, listed by entry. Tags and fused reporters are not part of them.
UniProt Q16539, whole entry: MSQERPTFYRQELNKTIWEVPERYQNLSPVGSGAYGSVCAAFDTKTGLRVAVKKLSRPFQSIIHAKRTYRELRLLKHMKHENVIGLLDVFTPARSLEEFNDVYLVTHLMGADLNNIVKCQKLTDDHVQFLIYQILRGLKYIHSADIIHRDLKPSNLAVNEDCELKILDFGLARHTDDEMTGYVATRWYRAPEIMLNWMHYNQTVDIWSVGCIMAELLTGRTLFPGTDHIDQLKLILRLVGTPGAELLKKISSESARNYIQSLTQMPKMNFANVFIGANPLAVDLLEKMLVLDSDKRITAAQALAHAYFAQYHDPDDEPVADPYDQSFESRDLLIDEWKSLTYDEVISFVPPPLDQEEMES

[1] = Table III, n = number of times assayed

Cc1cc(OCc2ccc(F)cc2)c(Br)c(=O)n1Cc1ccncc1 [AAAAA] showed an IC50 [1] of 0.394 µM.

In the case of Cc1cc(OCc2ccc(F)cc2)c(Br)c(=O)n1Cc1ccccn1 [KK], the IC50 (Table I, average of n trials) is reported as 0.997 µM.

With Cc1cc(OCc2ccc(F)cc2)c(Br)c(=O)n1Cc1cccnc1 [N] the IC50 (Table I, average of n trials) was 0.381 µM.

In the case of Cc1cc(OCc2ccc(F)cc2)c(Br)c(=O)n1Cc1ccncc1 [O], the IC50 (Table I, average of n trials) is reported as 0.394 µM.

Cc1cc(OCc2ccc(F)cc2)c(Br)c(=O)n1Cc1cccnc1 [ZZZZ] was tested, and the IC50 [1] was 0.381 µM.

Source: patent publication US20070088033A1, “Diaryl Substituted Pyridinones” (priority 2002, published 2007)
